Drawing on patent US20240246954A1, “COMPOSITIONS AND METHODS FOR INHIBITING KRAS” (TheRas, Inc., priority 2021, published 2024), this text covers IC50 for 1 compound.

Protein sequences, listed by entry. Tags and fused reporters are not part of them. Residues count along the entry.
UniProt P01116, 1-169 isoform 2 G12D limits assumed: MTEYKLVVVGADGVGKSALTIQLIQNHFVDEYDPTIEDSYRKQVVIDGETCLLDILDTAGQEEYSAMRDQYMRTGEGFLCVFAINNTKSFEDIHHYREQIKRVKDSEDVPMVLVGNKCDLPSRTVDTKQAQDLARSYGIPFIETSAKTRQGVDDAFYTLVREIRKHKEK
UniProt P01116, 1-169 isoform 2 G12D/Q25A limits assumed: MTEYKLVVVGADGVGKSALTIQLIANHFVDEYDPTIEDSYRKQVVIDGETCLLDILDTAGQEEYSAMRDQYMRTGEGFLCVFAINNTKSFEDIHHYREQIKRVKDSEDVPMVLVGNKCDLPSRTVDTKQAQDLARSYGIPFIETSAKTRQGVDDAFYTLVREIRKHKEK

In assay [1] the target is Avi-KRAS G12D (1-169) GppNHp/RAF1 RBD-3×FLAG (52-151) (Homo sapiens, UniProt P01116, G12D). The assay is described as follows: HTRF Raf1-KRAS G12D-GppNHp disruption assay. Conditions: read-out: Raf1-GppNHp-KRAS G12D disruption, 1 h incubation. The class given is biochemical.
Assay [2] deals with Avi-KRAS G12D/Q25A (1-169) GppNHp/3×FLAG-PI3KCA (157-299) (Homo sapiens, UniProt P01116, G12D/Q25A). The assay is described as follows: HTRF PI3KCA-KRAS G12D/Q25A-GppNHp disruption assay. It counts as biochemical. To be noted: read-out: PI3KCA-GppNHp-KRAS G12D/Q25A disruption, 1 h incubation.

Turning to `CN1CCC[C@H]1COc1nc(N[C@H]2C[C@@H](N)C2)c2cc(Cl)c(-c3ccc(F)c4sc(N)nc34)c(F)c2n1`, the IC50 in assay [1] and in assay [2] was 10 to 30 µM in each case.
